This data set has as its target T1, hGH (Homo sapiens, UniProt P01241).
T1 construct: purchased Hospira, Adelaide
The data set can be described thus: Complexation capability of hGH with anionic and cationic agents (non-complexed hGH in supernatant by RPLC). It counts as physicochemical. The conditions noted are these: concentration ratio 1:10. On the procedure:
Additional complexation agents were tested in vitro for their ability to precipitate rhGH.
Human growth hormone (purchased from Hospira, Adelaide) was complexed with poly lysine, poly arginine, poly adenylic acid (poly-A), or poly thymine (poly-T) in appropriate ratios (as specified in Table 28) to form suspensions. Supernatant was separated from precipitate (ppt) by centrifugation of the complexed material suspensions. The supernatant solution was analyzed for non-complexed hGH by reverse phase liquid chromatography (RPLC).

Amino acid sequences for entries named in this document (tags omitted). Residues count along the entry.
UniProt P01241, 27-217: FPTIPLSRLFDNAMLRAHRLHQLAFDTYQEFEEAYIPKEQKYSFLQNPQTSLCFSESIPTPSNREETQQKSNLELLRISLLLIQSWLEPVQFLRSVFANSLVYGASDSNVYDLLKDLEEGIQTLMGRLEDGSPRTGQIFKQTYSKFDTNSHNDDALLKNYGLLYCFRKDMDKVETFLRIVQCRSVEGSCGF

Results on 1 substance are retold here after US20170189547A1, “Biodegradable Drug Delivery Composition” (Durect Corporation, priority 2010, published 2017).

As to Poly-Arginine, for the setting “hGH with complexing agent”, the Observation result is given as “Cloudy ppt”. Further, the “Supernatant Analysis (% of hGH)” value (non-complexed hGH by RPLC) is 15.8 % of hGH.
